Test results: patent US20010010919A1 (priority 1998, published 2001)

Assays:
[1] = target: T1, novel mammalian opioid receptor (LC132, OFQR) (Rattus norvegicus, UniProt P35370); format: binding
T1 construct: The entire coding region of the receptor cDNA insert was subcloned into the RcRVS vector; expressed in transfected cells

[2] = target: T2, OFQR (Rattus norvegicus, UniProt P35370); test: Saturation binding of (^125I)-Y14-orphanin FQ to membranes of OFQR transfected CHO cells, Scatchard analysis; conditions: Scatchard line abscissa intercept
T2 construct: The entire coding region of the receptor cDNA insert was subcloned into the RcRVS vector; expressed in transfected cells

Molecule | specific binding of the radioactively-labeled ligand [1] | Bmax [2] [fmol/mg membrane protein]
CC[C@]12CCN(CC3CC3)[C@H](C(=O)c3ccc(O)cc31)[C@@H]2C [ethylketocyclazocine] | no specific binding | –
I-Y14: monoiodo form of the Y14 tyrosine-substituted orphanin FQ peptide, radiolabeled with 125I for binding (FGGFTGARKSARKYANQ; non-natural residues) | – | 800
